Compound activity from PubChem BioAssay.
miR-21 FLuc – miR-21 reporter, rising signal; HeLa miR-21 FLuc reporter, luciferase, 48 h; Potency, µM (titrated, usually from 38.3 µM), without a hit: top-dose reporter change, positive = more light; AID 2288; 340,000 tested, under 10 active; active = well fitted rising curve with a large enough effect; inconclusive = small, poorly fitted or top-dose-only effect; inactive = no such curve, though single readings can be large or run the other way;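 further: % of control where 0% means no effect; miR-21 action dims this reporter so a rising signal means less miR-21 action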
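Compounds were titrated across several concentrations (up to approximately 40 uM) and incubated 48 hours with HeLa miR-21-FLuc reporter cells (miR-21 target sequence downstream of FLuc, endogenous miR-21). Readout was firefly luciferase luminescence after lytic detection reagent.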
uPA surface inh – inhibitors of cell surface uPA generation | cell surface uPA generation assay, qHTS | actives 0.31% (n = 330,000) | Potency, µM (doses to about 38.3 µM), inactives show top-dose activity change, negative = inhibition, most hits filed as inhibitors; active = well fitted inhibition curve with a large enough effect; inconclusive = small, poorly fitted or top-dose-only effect; inactive = no such curve, though single readings can be large or run the other way; tested in mouse RAW 264.7 cells; note: potency is the fitted concentration of half-maximal effect; % is set by controls: 0 for no effect and ±100 for the full control effect; nearly all actives have a fitted effect of over 55% in size
TDP1 inh – blocks human tyrosyl-DNA phosphodiesterase 1; Q9NUW8; recombinant TDP1, AlphaScreen DNA substrate cleavage; Potency, µM (top dose mostly 130 µM), without a hit: at the top dose activity change, negative = inhibition, actives largely listed as inhibitors; actives 0.28% (n = 350,000); AID 485290; note: potency is the fitted concentration of half-maximal effect; % is set by controls: 0 for no effect and ±100 for the full control effect; nearly all actives have a fitted effect of over 40% in size
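AlphaScreen read-out: signal falls as enzyme removes the 3' tyrosine-FITC from a 5'-biotinylated DNA oligo (15 nM, 5 min, RT). Enzyme was E. coli-made recombinant Tdp1 at 1 nM, exposed to compound for 15 min beforehand; beads 10 ug/ml, 10 min.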
DT40 TDP1 no CPT – qHTS for Inhibitors of human tyrosyl-DNA phosphodiesterase 1 (TDP1): qHTS in cells in absence of CPT | DT40 Tdp1-/- hTDP1 cells, no CPT, ATP luminescence, 48 h | Potency, µM (series often up to 46.2 µM), inactives show at the highest dose activity change, negative = growth inhibition, usual class: inhibitors | actives 15% (n = 420,000) | AID 686978, 2013; note: potency is the fitted concentration of half-maximal effect; % is set by controls: 0 for no effect and ±100 for the full control effect; nearly all actives have a fitted effect of over 55% in size
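Chicken DT40 Tdp1-/- cells stably complemented with human TDP1 were seeded at 400 cells/well with DMSO in place of 20 nM camptothecin. After compound pinning, cells grew at least 48 hr at 37 °C; viability read by CellTiter-Glo luminescence.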
TDP1 cell CPT – growth inhibition of DT40 Tdp1-/-;hTDP1 cells with camptothecin (screen for TDP1 inhibitors); chicken DT40 Tdp1-/-;hTDP1 cells + 20 nM CPT, ATP luminescence, 48 h; Potency, µM (doses to about 46.2 µM), for inactives: at the top dose activity change, negative = growth inhibition, actives largely listed as inhibitors; actives 12% (n = 420,000); AID 686979; note: potency is the fitted concentration of half-maximal effect; % is set by controls: 0 for no effect and ±100 for the full control effect; nearly all actives have a fitted effect of over 55% in size
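Cell growth measured by CellTiter-Glo luminescence after a minimum 48 h, 37 C compound exposure with 20 nM CPT in Tdp1-knockout DT40 cells stably expressing hTDP1, seeded 400/well; qHTS titration format.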
An asterisk follows results filed as active; ? = inconclusive; nt = no result given; [ ] = dose if it differs, or a comment. Compounds with a hit are over-represented: about 16% of the library has one in this group of screens. Unless noted, calls come from the whole dose curve; as a rule, active = well fitted curve in the direction sought with a large enough effect; inconclusive = small, poorly fitted or top-dose-only effect, or another doubt; inactive = no such curve, though single readings can be large; an effect the other way counts as inactive or inconclusive.

#	mol	DT40 TDP1 no CPT	TDP1 inh	miR-21 FLuc	uPA surface inh	TDP1 cell CPT
1	Cc1nn(-c2ccccc2)c(C)c1C(=O)OC(C)C(=O)NC1CCCCC1 (stereo not drawn)	10.3µM*	0.5%	nt	0.5%	16.4µM*
2	O=S(=O)(c1ccccc1Br)N(CC(O)COCc1ccccc1)C1CC1 (stereo not drawn)	-21.0%	nt	nt	-0.3%	?
3	C=CCCCN(Cc1ccccc1)S(=O)(=O)c1ccccc1Br	?	39.8µM*	4.6%	?	?
4	O=S(=O)(c1ccccc1Br)N(Cc1ccccc1)CC(O)COCc1ccccc1 (stereo not drawn)	?	-5.8%[56.1 µM]	nt	-0.1%	23.1µM*
5	Cc1ccc(N2CC(C(=O)N3CCC4(CC3)CC(=O)c3ccccc3O4)CC2=O)cc1 (stereo not drawn)	23.1µM*	0.9%	nt	-4.0%	?
6	COc1ccc(N2CC(C(=O)N3CCC4(CC3)CC(=O)c3ccccc3O4)CC2=O)cc1 (stereo not drawn)	?	1.5%	nt	-2.1%	?
7	CSc1ccc(-c2nc3cc(C)ccn3c2Nc2ccc(C)cc2)cc1	?	2.5%	-12.4%	nt	-22.7%
8	Cc1ccc(Cc2c(-c3ccc(F)cc3)nc3cc(C)ccn23)cc1	16.4µM*	nt	nt	nt	?
9	Cc1ccc(Cc2c(-c3ccc(Br)cc3)nc3cc(C)ccn23)cc1	20.6µM*	nt	nt	nt	23.1µM*
10	CN(CC(=O)Nc1ccc(Br)cc1)Cc1ccccc1	-28.6%	nt	-26.3%	8.4%	-25.7%
11	COc1cc(OC)cc(-c2cc3nc(C)cc(N4CCN(C(=O)c5ccco5)CC4)n3n2)c1	nt	4.6%	-3.6%	nt	nt
12	FC(F)(F)c1cc(-c2ccccc2)nc2cc(-c3ccc(Br)cc3)nn12	-20.1%	3.2%	-3.4%	nt	-11.8%
13	COc1ccc(-c2cc3nc(C)cc(N4CCN(C(=O)c5cccnc5)CC4)n3n2)cc1	23.1µM*	nt	nt	nt	?
14	COc1ccc(-c2cc3nc(-c4ccccc4)cc(N4CCN(C(=O)c5ccoc5)CC4)n3n2)cc1	8.2µM*	nt	nt	nt	?
15	O=C(c1ccoc1)N1CCN(c2cc(-c3ccccc3)nc3cc(-c4ccc(Br)cc4)nn23)CC1	5.8µM*	nt	nt	nt	11.6µM*
16	Cc1cc(OC(=O)c2ccccc2F)c([N+](=O)[O-])c(=O)[nH]1	4.4%	5.2%	-1.3%	3.0%	-6.4%
17	COc1cc(NC(=O)Cn2c(=O)ccc3cc(S(=O)(=O)N4CCCC4)ccc32)cc(OC)c1	14.6µM*	1.1%	18.0%	nt	?
18	Cc1ccc(NC(=O)Cn2c(=O)ccc3cc(S(=O)(=O)N4CCCC4)ccc32)cc1C	-1.7%	4.4%	-3.6%	nt	-10.2%
19	COc1ccc(NC(=O)Cn2c(=O)ccc3cc(S(=O)(=O)N4CCCC4)ccc32)cc1Cl	13µM*	3.3%	17.2%	nt	16.4µM*
20	Cn1nc(C(=O)Nc2ccccc2Cl)cc1C(=O)Nc1ccccc1Cl	?	nt	nt	-0.5%	?
21	CN(Cc1ccccc1)c1nc2c(c(=O)[nH]c(=O)n2C)n1Cc1ccccc1F	?	5.3%	-8.2%	?	?
22	O=C(C1CC1)N(Cc1ccco1)c1nc(-c2ccccc2)cs1	?	9.1%	-9.2%	4.7%	?
23	Cc1ccc(S(=O)(=O)NCc2cn3ccccc3n2)c(C)c1	-6.7%	2.1%	3.3%	3.5%	3.0%
24	C=C(C)CNC(=S)N/N=C/c1c(F)cccc1F	16.4µM*	-5.3%	-0.7%	-0.6%	?
25	C=C(C)CNC(=S)N/N=C/C1=CCC2CC1C2(C)C (stereo not drawn)	7.31µM*	0.0%	-2.2%	0.5%	7.31µM*
26	CCCCNC(=S)N/N=C/C1=CCC2CC1C2(C)C (stereo not drawn)	18.4µM*	8.5%	-1.7%	-0.5%	?
27	CC(C)NC(=S)N/N=C/C1=CCC2CC1C2(C)C (stereo not drawn)	?	5.3%	17.2%	-4.8%	?
28	C=C(C)CNC(=S)N/N=C/c1ccc([N+](=O)[O-])cc1	-2.4%	7.5%	-10.2%	-9.7%	-19.4%
29	CC(=O)N/N=C/C1=CCC2CC1C2(C)C (stereo not drawn)	11.7%	-2.7%	-1.5%	8.1%	0.0%
30	COc1ccc(Cn2c(C(=O)O)c(CNC3CCCC3)c3ccc(OC)cc32)cc1	-29.1%	0.0%	-12.6%	nt	?

Other entries:
#	mol	DT40 TDP1 no CPT	TDP1 inh	miR-21 FLuc	uPA surface inh	TDP1 cell CPT
31	COc1ccc2c(CNCCc3ccccc3)c(C(=O)O)n(Cc3cccc(F)c3)c2c1	18.4µM*	4.7%	12.0%	nt	?
32	COc1ccc2c(CNCc3cccs3)c(C(=O)O)n(Cc3cccc(F)c3)c2c1	?	5.6%	-8.2%	nt	-7.6%
33	CCOc1ccccc1CNCc1c(C(=O)O)n(Cc2ccccc2)c2cc(OC)ccc12	13µM*	5.1%	-6.0%	nt	?
34	COc1ccc(Cn2c(C(=O)O)c(CNCc3ccccc3F)c3ccc(OC)cc32)cc1	16.4µM*	2.6%	17.3%	nt	?
35	COc1ccc2c(CNC3CCC(C)CC3)c(C(=O)O)n(Cc3ccc(F)cc3)c2c1 (stereo not drawn)	16.4µM*	2.6%	-0.8%	nt	?
36	Cc1cccc(CNc2nc(-c3ccc4c(c3)OCO4)nc3ccccc23)c1	23.1µM*	nt	nt	nt	?
37	Cc1occc1CNc1ncnc2ccc(-c3ccc4c(c3)OCO4)cc12	nt	4.0%	nt	nt	nt
38	Cc1cccc(-c2nc(NCCCN3CCOCC3)c3ccccc3n2)c1	?	-6.6%	11.3%	-4.8%	18.4µM*
39	Cc1cccc(CNc2ncnc3ccc(-c4ccc5c(c4)OCO5)cc23)c1	18.4µM*	3.6%	nt	-5.3%	?
40	c1ccc(-c2nc(NCCCN3CCOCC3)c3ccccc3n2)cc1	?	4.1%	1.9%	-1.2%	9.4%
41	c1cncc(CNc2ncncc2-c2ccc3c(c2)OCO3)c1	10.3µM*	nt	nt	nt	6.51µM*
42	C[C@@](N)(C(=O)O)[C@@H]1C[C@@H]1C(=O)O	-18.7%	3.7%	nt	nt	-17.5%
43	Cc1ccc(NC(=O)CN2C(=O)COc3ccc(S(=O)(=O)N4CCOCC4)cc32)c(Cl)c1	?	7.7%	-4.3%	nt	?
44	Cc1cccc(CNc2ncncc2-c2cccnc2)c1	-11.4%	nt	nt	nt	-6.5%
45	Cc1cccc(CNc2ncnc3ccc(-c4ccc(C(=O)N(C)C)cc4)cc23)c1	25.9µM*	2.7%	nt	nt	?
46	Cc1cccc(CNc2ncncc2-c2ccc(C(=O)N(C)C)cc2)c1	3.66µM*	nt	nt	nt	?
47	COC(=O)c1cc2ccccc2n1S(=O)(=O)c1ccccc1	-8.8%	nt	-9.8%	-2.6%	10.0%
48	CCOC(=O)C1CCN(C(=O)Nc2cc(Cl)cc(Cl)c2)CC1	?	nt	-0.9%	-0.2%	18.4µM*
49	CCOC(=O)C1CCN(C(=O)Nc2cccc(Cl)c2)CC1	-3.3%	1.1%	-7.3%	-3.3%	7.2%
50	CC(Sc1ncnc2sc(-c3ccccc3)cc12)C(=O)N1CCNC1=O (stereo not drawn)	?	1.0%	nt	17.6%	18.4µM*

Compound profiles, from the list above:
Cc1cccc(CNc2ncnc3ccc(-c4ccc(C(=O)N(C)C)cc4)cc23)c1 in the list: DT40 TDP1 no CPT = 25.9µM*; TDP1 inh = 2.7%; miR-21 FLuc = nt; uPA surface inh = nt; TDP1 cell CPT = ?
CC(Sc1ncnc2sc(-c3ccccc3)cc12)C(=O)N1CCNC1=O (stereo not drawn) in the list: DT40 TDP1 no CPT = ?; TDP1 inh = 1.0%; miR-21 FLuc = nt; uPA surface inh = 17.6%; TDP1 cell CPT = 18.4µM*
Cc1ccc(NC(=O)CN2C(=O)COc3ccc(S(=O)(=O)N4CCOCC4)cc32)c(Cl)c1 in the list: DT40 TDP1 no CPT = ?; TDP1 inh = 7.7%; miR-21 FLuc = -4.3%; uPA surface inh = nt; TDP1 cell CPT = ?
